Laboratory results published in PubChem BioAssay AID1956 (SRMLSC, 2009).
Only a part is listed here, and it is no random draw. Activity calls are given as the source filed them. No stated cut-off is given here; in the data, active means maximum fold increase above about 1.5; inconclusive means no clear call, values can overlap the other calls; inactive means below that; tested in PC3 cells.

Experiment: enhancers of HSV replication in host cells, fold increase, host cell viability (AID 1956)
Details: HSV replication augmentation in cells; at 3.125 µM, active compounds read high

Row | Structure (SMILES) | maximum fold increase
1 | O=P1(Nc2ncccn2)COc2ccccc2OC1 | inactive
2 | CN1CCCCC1COC(=O)C1(O)c2ccccc2CCc2ccccc21 (configuration not stated) | inactive
3 | COc1ccccc1OP(C)(=O)Nc1c(C)cccc1C (configuration not stated) | inactive
4 | O=P1(Nc2ccc(Br)cn2)COc2ccccc2OC1 | inactive
5 | Cc1ccc(OCC(=O)OC2CN3CCC2CC3)cc1 (configuration not stated) | inactive
6 | O=[As](O)(c1cccs1)c1cccs1 | inactive
7 | CP(=O)(Nc1ccc(SC(F)(F)F)cc1)Oc1ccccc1 (configuration not stated) | inactive
8 | CCCOc1ccc(NP(C)(=O)Oc2ccc(Cl)cc2)cc1 (configuration not stated) | inactive
9 | COc1cc(C2NCCC3(OCCO3)C2(C)C)cc(OC)c1OC.O=[N+]([O-])c1cc([N+](=O)[O-])c(O)c([N+](=O)[O-])c1 (configuration not stated) | inactive
10 | CC1CCC(C(C)C)C(OP(=O)(Nc2ccccn2)c2ccccc2)C1 (configuration not stated) | inactive
11 | Cc1nn(-c2ccccc2)c2c1P(=O)(N1CCOCC1)N(C)C(c1ccccc1)=N2 (configuration not stated) | inactive
12 | O=C(/C=C/c1ccccc1)OC1CN2CCC1CC2 (configuration not stated) | inactive
13 | CCOC(=O)C(CC)C1=NC(C)(C)Cc2ccccc21.O=[N+]([O-])c1cc([N+](=O)[O-])c(O)c([N+](=O)[O-])c1 (configuration not stated) | inactive
14 | O=[N+]([O-])c1cc([N+](=O)[O-])c(Nc2nnnn2CCO)c([N+](=O)[O-])c1 | inactive
15 | CN(C)C1(CNC(=O)c2ccc(S(C)(=O)=O)cc2)CCCCC1 | inactive
16 | CC1(CBr)Cn2c(nc3ccccc3c2=O)S1 (configuration not stated) | inactive
17 | Cc1nc2ccc3ccccc3c2s1.O=[N+]([O-])c1cc([N+](=O)[O-])c(O)c([N+](=O)[O-])c1 | inactive
18 | O=[As](O)(c1ccccc1Br)c1ccccc1Br | inactive
19 | CN(C(=O)Cc1ccc(Cl)c(Cl)c1)[C@@H]1CCCC[C@H]1N1CCCC1 | inactive
20 | CC(C)/C=N\N=C(\N)N[N+](=O)[O-] | inactive
21 | CN(CCCl)Cc1cc(Cl)c(NC2=NCCN2)c(Cl)c1 | inactive
22 | CCOP(=O)(Nc1ccc(C)cn1)OCC | inactive
23 | O=[N+]([O-])c1cc([N+](=O)[O-])c(-n2nnc3ccccc32)c([N+](=O)[O-])c1 | inactive
24 | O=P1(Nc2ccccn2)COc2ccccc2OC1 | inactive

Row | Structure (SMILES) | maximum fold increase
25 | CC(C)(C)C(=O)NC(Sc1ncccn1)C(Cl)(Cl)Cl (configuration not stated) | inactive
26 | Clc1n[nH]nc1-c1nn[nH][15n]1 | inactive
27 | CCCOP(=S)(Nc1nc(N)cc(=O)[nH]1)OCCC | inactive
28 | Cc1ccc(C)c(NP(C)(=O)Oc2ccccc2)c1 (configuration not stated) | inactive
29 | Cc1ccc(NCCc2c([N+](=O)[O-])cc([N+](=O)[O-])cc2[N+](=O)[O-])cc1 | inactive
30 | CP(=O)(Nc1cccc(Br)c1)Oc1ccccc1 (configuration not stated) | inactive
31 | Cc1cc(C)cc(OP(C)(=O)Nc2ccccn2)c1 (configuration not stated) | inactive
32 | CCOP(=O)(Nc1cccc2ccccc12)OCC | inactive
33 | COc1ccccc1OP(C)(=O)Nc1cccc(Br)c1 (configuration not stated) | inactive
34 | COc1cc(C(=O)NCC2(N3CCOCC3)CCCCC2)cc(Cl)c1OC(C)C | inactive
35 | O=[As](O)(O)c1cccnc1 | inactive
36 | O=C(OC1CN2CCC1CC2)c1ccc(Cl)cc1 (configuration not stated) | inactive
37 | CCOC(=O)c1ccc(NP(C)(=O)Oc2cc(C)cc(C)c2)cc1 (configuration not stated) | inactive
38 | Cc1cc(C)cc(OP(C)(=O)Nc2ccc(C)cc2C)c1 (configuration not stated) | inactive
39 | O=[As](O)(c1cccc(O)c1)c1cccc(O)c1 | inactive
40 | Cc1cccc(OCC(=O)OC2CN3CCC2CC3)c1 (configuration not stated) | inactive
41 | NC(=O)Nc1ccc([As](=O)(O)O)cc1 | inactive
42 | CN(C(=O)Cc1ccc(Cl)c(Cl)c1)[C@H]1CC[C@@]2(CCCO2)C[C@@H]1N1CCCC1 | inactive
43 | CC1=NCCc2c1[nH]c1ccccc21.O=[N+]([O-])c1cc([N+](=O)[O-])c(O)c([N+](=O)[O-])c1 | inactive
44 | O=[N+]([O-])c1ccc2c(c1)nnn2O | inactive
45 | CCOP1(=S)c2c(C)nn(CCC#N)c2N=C(c2ccc(F)cc2)N1C (configuration not stated) | inactive
46 | CN(C(=O)Cc1ccccc1)[C@@H]1CC[C@]2(CCCO2)C[C@H]1N1CCCC1 | inactive
47 | CS(=O)(=O)c1cc([N+](=O)[O-])c2no[n+]([O-])c2c1 | inactive
48 | O=P(Nc1nccs1)(c1ccccc1)c1nc2ccccc2s1 (configuration not stated) | inactive

Row | Structure (SMILES) | maximum fold increase
49 | O=P(Nc1nccs1)(Oc1ccccc1)Oc1ccccc1 | inactive
50 | O=C(O)c1cccc(Nc2c([N+](=O)[O-])cc([N+](=O)[O-])cc2[N+](=O)[O-])c1 | inactive
51 | CCOP1(=S)c2c(C)nn(CCC#N)c2N=C(c2ccccc2F)N1C (configuration not stated) | inactive
52 | O=C(O)COc1ccc([As](=O)(O)O)cc1[N+](=O)[O-] | inactive
53 | Nc1ccccc1[As](=O)(O)c1ccccc1 | inactive
54 | CC(C)c1ccc(OP(=O)(Nc2ccccn2)Oc2ccccc2F)cc1 (configuration not stated) | inactive
55 | COc1ccccc1OP(C)(=O)Nc1ccc(C)cc1 (configuration not stated) | inactive
56 | ClCCSc1nnc(-c2cccnc2)o1 | inactive
57 | CCOC(=O)c1ccc(NP(C)(=O)Oc2ccccc2)cc1 (configuration not stated) | inactive
58 | Cc1cc(C)cc(OP(C)(N)=O)c1 (configuration not stated) | inactive
59 | O=[N+]([O-])c1cc([N+](=O)[O-])c(-c2ccn[nH]2)s1 | inactive
60 | CCN(CC)C(=S)SC(NC=O)C(Cl)(Cl)Cl (configuration not stated) | inactive
61 | CC(C)NC(=O)NP(=O)(Oc1ccccc1)Oc1ccccc1 | inactive
62 | COc1ccccc1OP(C)(=O)Nc1cc(Cl)ccc1C (configuration not stated) | inactive
63 | C[As](=O)(O)c1cccc(C(=O)O)c1 | inactive
64 | O=[As](O)(c1ccc(O)cc1)c1ccccc1O | inactive
65 | Cc1ccc2nc3c(c(C)c2c1)CC(C(Cl)Cl)S3 (configuration not stated) | inactive
66 | O=[N+]([O-])c1ccc2c(c1)C=Nc1ccccc1O2 | inactive
67 | Cc1cccc(C)c1OP(C)(N)=O (configuration not stated) | inactive
68 | CC(C)(C)c1ccc(OP(C)(=O)Nc2ccc(SC(F)(F)F)cc2)cc1 (configuration not stated) | inactive
69 | Cc1ccc(OP(=O)(Nc2ccc([N+](=O)[O-])cn2)Oc2ccc(C)cc2)cc1 | inactive
70 | COc1ccc(N/C(=N/P(=O)(N2CCOCC2)N2CCOCC2)N2CCOCC2)cc1 | inactive
71 | Cc1cc(=O)[nH]c(N[N+](=O)[O-])n1 | inactive
72 | CCN(CC)CCCOC(=O)C(O)(c1ccccc1)c1ccccc1 | inactive

Row | Structure (SMILES) | maximum fold increase
73 | O=C(OC1CN2CCC1CC2)C12CC3CC(CC(C3)C1)C2 (configuration not stated) | inactive
74 | Cc1c2c(nc3ccccc13)SC(C(Cl)Cl)C2 (configuration not stated) | inactive
75 | COc1cc(I)ccc1[As](=O)(O)O | inactive
76 | COc1ccc2nc(NP(=O)(c3ccccc3)c3ccccc3)sc2c1 | inactive
77 | CCOC(=O)c1ccc(NC(=O)C(C)(CCl)SC)cc1 (configuration not stated) | inactive
78 | CCOC(=O)c1ccc(NP(C)(=O)Oc2ccc(OC)cc2)cc1 (configuration not stated) | inactive
79 | CCOP(C)(=S)SCC(=O)NC(C)C(=O)O (configuration not stated) | inactive
80 | CP(=O)(Nc1ccccn1)Oc1ccc(Cl)cc1 (configuration not stated) | inactive
81 | CCC(C)N(CC(C)C)C(=S)SC(NC(C)=O)C(Cl)(Cl)Cl (configuration not stated) | inactive
82 | CP(=O)(Oc1ccccc1)OC(c1ccccc1)C(F)(F)F (configuration not stated) | inactive
83 | CP(=O)(Nc1ccc(SC(F)(F)F)cc1)Oc1ccc(Cl)cc1 (configuration not stated) | inactive
84 | Cc1cccc(C)c1OP(C)(=O)Nc1ccc(SC(F)(F)F)cc1 (configuration not stated) | inactive
85 | COP1(=S)c2c(C)nn(CCC#N)c2N=C(c2ccc(F)cc2)N1C (configuration not stated) | inactive
86 | Cc1cc(C)cc(OP(C)(=O)Nc2ccc(SC(F)(F)F)cc2)c1 (configuration not stated) | inactive
87 | CCc1ccc(OP(C)(=O)N2CCN(c3ccc([N+](=O)[O-])cc3)CC2)cc1 (configuration not stated) | inactive
88 | CP(=O)(NC(=O)Nc1ccccc1)Oc1ccccc1 (configuration not stated) | inactive
89 | CCOC(=O)Nc1cccc([As](=O)(O)O)c1 | inactive
90 | CP(=S)(Nn1cnnc1)Oc1ccccc1 (configuration not stated) | inactive
91 | O=[N+]([O-])c1ccc(Nc2ccc(Oc3ccc([N+](=O)[O-])cc3[N+](=O)[O-])cc2)c([N+](=O)[O-])c1 | inactive
92 | CP(=O)(Nc1ccccc1Br)Oc1ccccc1 (configuration not stated) | inactive
93 | COc1ccccc1OP(C)(=O)Nc1ccccc1 (configuration not stated) | inactive
94 | Cc1cc(SC(NC=O)C(Cl)(Cl)Cl)ncn1 (configuration not stated) | inactive
95 | O=P(Nc1ccccn1)(c1cccc2ccccc12)c1cccc2ccccc12 | inactive
96 | CCOC(=O)Nc1ccc([As](=O)(O)O)c(O)c1 | inactive

Row | Structure (SMILES) | maximum fold increase
97 | Cc1cc(SC(NC(=O)c2ccccc2)C(Cl)(Cl)Cl)nc(C(C)C)n1 (configuration not stated) | inactive: 1.05
98 | CC(C)(C)C(=O)NC(Sc1ccncn1)C(Cl)(Cl)Cl (configuration not stated) | inactive
99 | O=[N+]([O-])c1ncn(CCn2ncnc2[N+](=O)[O-])n1 | inactive
100 | O=[N+]([O-])c1cccc(NC2=NCC(CBr)S2)c1 (configuration not stated) | inactive
101 | O=C(O)CNc1ccc([As](=O)(O)O)cc1 | inactive
102 | O=C(Nc1cc([As](=O)(O)O)ccc1O)c1ccccc1 | inactive
103 | CCOC(=O)c1ccc(NP(C)(=O)Oc2ccc(Cl)cc2)cc1 (configuration not stated) | inactive
104 | CP(=O)(OC12CC3CC(CC(C3)C1)C2)OC12CC3CC(CC(C3)C1)C2 | inactive
105 | C[N+]1=C2C=CC=CC=C2SC12C([N+](=O)[O-])=CC([N+](=O)[O-])=C[C-]2[N+](=O)[O-] (configuration not stated) | inactive
106 | Nc1ccc([As](=O)(O)c2ccc(N)cc2)cc1 | inactive
107 | CC(C)(C)c1ccc(OP(C)(=O)O)cc1 | inactive
108 | COc1ccccc1OP(C)(=O)Nc1ccccc1Br (configuration not stated) | inactive
109 | CP(=O)(Nc1ccc(Cl)cc1)Oc1ccc(F)cc1 (configuration not stated) | inactive
110 | CCN(/C(=N/P(=O)(N1CCOCC1)N1CCOCC1)N1CCOCC1)c1ccc(OC)cc1 | inactive
111 | CN(C)C(=O)OCCc1n(C)cc[n+]1C | inactive
112 | CC(C)=N/N=C(\N)N[N+](=O)[O-] | inactive
113 | CN(C)C(=O)c1c([N+](=O)[O-])cc([N+](=O)[O-])cc1[N+](=O)[O-] | inactive
114 | CC1CCN(C(=O)Oc2c(Cl)cc(Cl)c3cccnc23)CC1 | inactive
115 | COc1ccc(OP(C)(=O)Nc2ccc(Br)cc2)cc1 (configuration not stated) | inactive
116 | COc1ccc(C2=NCC(CBr)S2)cc1 (configuration not stated) | inactive
117 | CCN(CC)CC(O)COC(=O)C(O)(c1ccccc1)C1CCCCC1 (configuration not stated) | inactive
